Test results from article PMC6201295 (Leukemia & lymphoma, 2018).

Assay: Plasma pharmacokinetics of dasatinib in study patients
Conditions: human, oral, 100 mg

Work on `Cc1nc(Nc2ncc(C(=O)Nc3c(C)cccc3Cl)s2)cc(N2CCN(CCO)CC2)n1` [Dasatinib] yielded a half-life of 2.5 h.
